This is an account of results in ChEMBL document CHEMBL4325916, “Isoform selective PLD inhibition by novel, chiral 2,8-diazaspiro[4.5]decan-1-one derivatives” (Bioorg Med Chem Lett, 2018).

Amino acid sequences for entries named in this document (tags omitted). A change or cut given only in a name is not applied to a line headed by its entry.
UniProt O14939: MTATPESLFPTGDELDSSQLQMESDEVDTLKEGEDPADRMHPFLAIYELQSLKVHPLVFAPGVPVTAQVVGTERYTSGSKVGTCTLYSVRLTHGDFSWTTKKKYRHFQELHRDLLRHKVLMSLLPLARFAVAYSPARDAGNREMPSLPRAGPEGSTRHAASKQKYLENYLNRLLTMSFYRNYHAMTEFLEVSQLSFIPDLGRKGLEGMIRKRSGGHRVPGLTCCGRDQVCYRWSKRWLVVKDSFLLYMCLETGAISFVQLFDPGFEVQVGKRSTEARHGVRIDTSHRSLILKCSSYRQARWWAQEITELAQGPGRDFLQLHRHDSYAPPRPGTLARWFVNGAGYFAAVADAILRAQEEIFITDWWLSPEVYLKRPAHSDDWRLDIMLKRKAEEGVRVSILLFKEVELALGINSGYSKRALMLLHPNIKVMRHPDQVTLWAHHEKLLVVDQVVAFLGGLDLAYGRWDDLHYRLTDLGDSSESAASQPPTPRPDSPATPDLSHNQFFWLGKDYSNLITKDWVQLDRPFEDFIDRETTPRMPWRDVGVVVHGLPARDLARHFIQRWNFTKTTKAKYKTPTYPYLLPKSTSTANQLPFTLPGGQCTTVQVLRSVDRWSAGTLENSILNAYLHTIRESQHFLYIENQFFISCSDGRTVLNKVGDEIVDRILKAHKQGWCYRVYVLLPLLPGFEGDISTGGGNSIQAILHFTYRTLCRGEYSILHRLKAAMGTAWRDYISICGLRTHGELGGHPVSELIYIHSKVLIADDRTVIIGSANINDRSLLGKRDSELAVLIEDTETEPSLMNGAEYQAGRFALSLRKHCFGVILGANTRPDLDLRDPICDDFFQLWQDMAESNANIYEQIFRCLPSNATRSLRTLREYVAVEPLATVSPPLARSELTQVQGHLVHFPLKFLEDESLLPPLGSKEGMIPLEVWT

For orientation: IC50 means the concentration that inhibits the measured activity by half. Lower therefore signals higher potency.

One experiment concerns the target Phospholipase D2 (Homo sapiens, UniProt O14939). Put plainly: Inhibition of GFP-fused PLD2 (unknown origin) expressed in HEK293 cells by cellular assay. Type of experiment: cell-based.
A further experiment has as its target T1, Phospholipase D1 (Homo sapiens, UniProt Q13393).
T1 sequence (Q13393 whole entry): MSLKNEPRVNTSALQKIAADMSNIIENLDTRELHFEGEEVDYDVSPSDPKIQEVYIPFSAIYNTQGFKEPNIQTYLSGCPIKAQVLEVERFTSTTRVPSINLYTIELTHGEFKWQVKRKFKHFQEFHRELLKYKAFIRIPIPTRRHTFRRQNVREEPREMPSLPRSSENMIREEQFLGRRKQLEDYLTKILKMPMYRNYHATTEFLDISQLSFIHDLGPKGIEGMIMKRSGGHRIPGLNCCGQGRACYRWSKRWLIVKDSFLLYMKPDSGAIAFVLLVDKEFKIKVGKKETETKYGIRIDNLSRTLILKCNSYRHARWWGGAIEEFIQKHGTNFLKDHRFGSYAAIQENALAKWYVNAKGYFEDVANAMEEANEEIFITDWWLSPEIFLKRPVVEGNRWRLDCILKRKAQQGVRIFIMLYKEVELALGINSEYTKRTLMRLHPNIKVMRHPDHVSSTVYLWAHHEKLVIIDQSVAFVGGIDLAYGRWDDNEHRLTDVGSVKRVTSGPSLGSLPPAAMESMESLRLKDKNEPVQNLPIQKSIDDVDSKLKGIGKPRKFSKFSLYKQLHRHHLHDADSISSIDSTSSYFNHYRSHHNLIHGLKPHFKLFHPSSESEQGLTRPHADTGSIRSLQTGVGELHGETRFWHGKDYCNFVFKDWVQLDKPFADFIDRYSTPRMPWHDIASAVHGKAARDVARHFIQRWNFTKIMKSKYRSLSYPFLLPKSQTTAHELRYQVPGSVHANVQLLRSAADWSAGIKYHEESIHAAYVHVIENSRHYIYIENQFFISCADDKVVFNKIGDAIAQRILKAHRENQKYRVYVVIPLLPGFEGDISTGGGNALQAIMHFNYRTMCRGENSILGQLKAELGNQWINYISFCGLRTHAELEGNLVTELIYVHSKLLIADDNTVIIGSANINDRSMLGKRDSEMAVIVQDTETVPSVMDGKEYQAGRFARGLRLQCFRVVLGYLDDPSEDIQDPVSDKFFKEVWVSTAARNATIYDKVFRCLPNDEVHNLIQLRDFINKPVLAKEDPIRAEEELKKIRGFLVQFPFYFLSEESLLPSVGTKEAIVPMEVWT
Put plainly: Inhibition of PLD1 in human Calu1 cells. Type of experiment: cell-based.

As for `C[C@@H](CN1CCC2(CC1)C(=O)NC[C@@H]2c1ccc(F)cc1)NC(=O)c1cnc2ccccc2c1`, the values for the IC50 on Phospholipase D2 and against Phospholipase D1 were 700 nM and 200 nM, respectively.

As to `O=C(NCCN1CCC2(CC1)C(O)=NC[C@H]2c1ccc(F)cc1)c1cnc2ccccc2c1`, the IC50 against Phospholipase D2 was 60 nM; on Phospholipase D1, 1350 nM.

On to `O=C(NCCN1CCC2(CC1)C(O)=NC[C@H]2c1ccc(F)cc1)c1ccc(F)cc1`, for which the results for the IC50 against Phospholipase D2 and at Phospholipase D1 were 220 nM and 5500 nM, respectively.

In the case of `O=C(NCCN1CCC2(CC1)C(=O)NC[C@@H]2c1ccc(F)cc1)c1cnc2ccccc2c1`, the IC50 at Phospholipase D2 stood at 450 nM; at Phospholipase D1 it was 12000 nM.

Turning to `O=C(NCCN1CCC2(CC1)C(=O)NC[C@@H]2c1ccc(F)cc1)c1ccc(F)cc1`, the values for the IC50 on Phospholipase D2 and on Phospholipase D1 were 3170 nM and more than 20000 nM, respectively.

For the molecule `C[C@@H](CN1CCC2(CC1)C(=O)NC[C@H]2c1ccc(F)cc1)NC(=O)c1cnc2ccccc2c1`, the IC50 came to 115 nM against Phospholipase D2 and 25 nM against Phospholipase D1.
